Data on one molecule can be found in patent US4336253A, “Cephalosporin antibiotics” (Eli Lilly and Company, priority 1981, dated 1982).

The nature of the series: physchem.

The term pKa denotes the negative logarithm of the acid dissociation constant. A higher pKa goes with a weaker acid or stronger base. `O=C(NO)c1cccnc1` [N-hydroxy-3-pyridinecarboxamide]: the pKa was 2.6 (50% methyl alcohol, first titratable group); 9 (50% methyl alcohol, second titratable group); around 2.5 (66% dmf, first titratable group); 9.9 (66% dmf, second titratable group); 3.09 (water, first titratable group); 8.29 (water, second titratable group).
